Target: Cytochrome P450 1A2 (Homo sapiens, UniProt P05177)
Experiment: Inhibition of human CYP1A2 at 3 uM
Type: ADME

Amino acid sequences for entries named in this document (tags omitted).
UniProt P05177, whole entry: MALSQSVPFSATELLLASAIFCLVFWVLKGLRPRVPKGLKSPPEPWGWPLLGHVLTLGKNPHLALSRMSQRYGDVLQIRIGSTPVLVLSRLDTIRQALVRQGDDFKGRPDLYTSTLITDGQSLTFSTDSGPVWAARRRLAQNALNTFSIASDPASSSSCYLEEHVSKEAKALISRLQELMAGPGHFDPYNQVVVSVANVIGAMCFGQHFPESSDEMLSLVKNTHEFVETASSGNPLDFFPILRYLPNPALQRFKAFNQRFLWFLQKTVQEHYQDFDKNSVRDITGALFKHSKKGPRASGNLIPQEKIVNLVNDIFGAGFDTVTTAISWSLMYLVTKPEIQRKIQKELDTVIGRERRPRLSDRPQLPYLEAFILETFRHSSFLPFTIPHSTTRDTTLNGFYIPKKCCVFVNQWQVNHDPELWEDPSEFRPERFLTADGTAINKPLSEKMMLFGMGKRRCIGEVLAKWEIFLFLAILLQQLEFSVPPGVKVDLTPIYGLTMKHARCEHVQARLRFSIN

inhibition (INH): > 93%
Compound: O=c1cc(-c2ccccc2)oc2c1ccc1ccccc12 [ALPHA-NAPHTHOFLAVONE]

Source: ChEMBL document CHEMBL2346553, “Synthesis and evaluation of non-dimeric HCV NS5A inhibitors” (Bioorg Med Chem Lett, 2013)
